Earlier results, collected in patent US20100136094A1, “Systems for modulating inflammation” (Searete LLC, a limited liability corporation of the state …, priority 2008, published 2010).

Chains of the proteins cited; added tags and fusions are not shown. Residues count along the entry.
UniProt P10721, 26-976: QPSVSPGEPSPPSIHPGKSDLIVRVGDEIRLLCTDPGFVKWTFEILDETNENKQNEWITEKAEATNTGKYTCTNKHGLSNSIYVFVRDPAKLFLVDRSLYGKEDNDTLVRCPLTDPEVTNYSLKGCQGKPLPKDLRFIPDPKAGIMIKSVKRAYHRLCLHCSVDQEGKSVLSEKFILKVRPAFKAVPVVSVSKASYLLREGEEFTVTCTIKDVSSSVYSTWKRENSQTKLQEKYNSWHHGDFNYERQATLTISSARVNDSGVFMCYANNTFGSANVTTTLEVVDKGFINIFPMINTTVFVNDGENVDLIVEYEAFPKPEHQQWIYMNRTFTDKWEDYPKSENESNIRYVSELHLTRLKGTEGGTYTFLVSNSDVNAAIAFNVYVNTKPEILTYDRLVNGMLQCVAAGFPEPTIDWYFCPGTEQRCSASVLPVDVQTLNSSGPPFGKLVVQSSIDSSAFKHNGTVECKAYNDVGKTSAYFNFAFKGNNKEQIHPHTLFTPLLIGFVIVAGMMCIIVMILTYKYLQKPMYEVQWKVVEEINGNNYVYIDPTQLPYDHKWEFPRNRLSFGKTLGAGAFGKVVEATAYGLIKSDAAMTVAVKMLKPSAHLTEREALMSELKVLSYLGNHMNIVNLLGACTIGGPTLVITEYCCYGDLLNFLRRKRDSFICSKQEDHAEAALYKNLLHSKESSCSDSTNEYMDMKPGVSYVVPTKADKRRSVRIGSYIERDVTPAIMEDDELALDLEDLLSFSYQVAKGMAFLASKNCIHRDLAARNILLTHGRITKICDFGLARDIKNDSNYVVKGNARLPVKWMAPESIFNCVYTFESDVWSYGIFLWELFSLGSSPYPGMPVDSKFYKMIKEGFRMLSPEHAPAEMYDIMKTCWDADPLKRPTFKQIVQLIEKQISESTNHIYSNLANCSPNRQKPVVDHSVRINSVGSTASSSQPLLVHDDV
UniProt P09619, 33-1106, species assumed: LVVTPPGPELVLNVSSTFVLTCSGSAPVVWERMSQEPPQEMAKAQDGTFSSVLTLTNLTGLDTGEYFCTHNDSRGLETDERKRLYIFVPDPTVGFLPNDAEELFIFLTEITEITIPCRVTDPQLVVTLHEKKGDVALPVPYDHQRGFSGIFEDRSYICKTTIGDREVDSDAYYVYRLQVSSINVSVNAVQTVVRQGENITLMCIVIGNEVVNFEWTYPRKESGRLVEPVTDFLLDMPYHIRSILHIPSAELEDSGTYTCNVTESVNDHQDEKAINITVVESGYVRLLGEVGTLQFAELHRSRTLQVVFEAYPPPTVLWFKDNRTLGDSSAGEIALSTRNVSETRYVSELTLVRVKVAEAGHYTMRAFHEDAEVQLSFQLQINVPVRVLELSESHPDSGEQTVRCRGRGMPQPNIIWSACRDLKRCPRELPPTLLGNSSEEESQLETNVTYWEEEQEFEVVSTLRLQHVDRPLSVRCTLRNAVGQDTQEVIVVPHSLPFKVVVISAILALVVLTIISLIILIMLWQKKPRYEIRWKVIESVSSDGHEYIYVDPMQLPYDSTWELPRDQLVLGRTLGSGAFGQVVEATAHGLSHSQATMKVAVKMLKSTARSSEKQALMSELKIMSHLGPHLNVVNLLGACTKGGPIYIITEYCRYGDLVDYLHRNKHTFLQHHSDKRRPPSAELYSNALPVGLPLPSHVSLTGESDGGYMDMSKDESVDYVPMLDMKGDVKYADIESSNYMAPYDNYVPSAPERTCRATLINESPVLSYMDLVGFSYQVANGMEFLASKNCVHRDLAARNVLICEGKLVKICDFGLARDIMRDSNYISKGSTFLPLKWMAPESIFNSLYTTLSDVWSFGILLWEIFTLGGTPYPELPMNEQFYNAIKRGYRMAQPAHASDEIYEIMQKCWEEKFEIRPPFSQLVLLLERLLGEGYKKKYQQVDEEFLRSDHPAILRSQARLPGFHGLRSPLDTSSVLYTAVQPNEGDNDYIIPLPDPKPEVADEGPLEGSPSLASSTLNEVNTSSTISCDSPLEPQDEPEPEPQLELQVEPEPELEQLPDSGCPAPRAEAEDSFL

What was measured:
c-Kit = c-Kit (Homo sapiens, UniProt P10721); conditions: at nanomolar concentrations
PDGFRβ = PDGFRβ (Homo sapiens, UniProt P09619); conditions: at nanomolar concentrations

Cc1nc(Nc2ncc(C(=O)Nc3c(C)cccc3Cl)s2)cc(N2CCN(CCO)CC2)n1.O [dasatinib, N-(2-chloro-6-methylphenyl)-2-[[6-[4-(2-hydroxyethyl)-1-piperazinyl]-2-methyl-4-pyrimidinyl]amino]-5-thiazolecarboxamide, monohydrate]
inhibition of c-Kit (c-Kit): inhibits | inhibition of PDGFRβ (PDGFRβ): inhibits
